Test system: subjects with eosinophilic asthma
Procedure: Pulmonary function is measured by performing a spirometry, which measures forced expiratory volume in is (FEV1), the volume of air moved in the first second of exhalation, this is a well-accepted measure of asthma. Forced vital capacity (FVC) is the total volume of air exhaled during the entire forced expiratory volume (FEV) test. The FEV1/FVC ratio is a calculated measure that may provide a more specific measure of bronchoconstriction, independent of processes such as air trapping. Pulmonary function testing can be tested pre-bronchodilator (after waiting a sufficient time so that all bronchodilator medications have cleared) or post-bronchodilator, typically 15-30 minutes after inhaling a short-acting bronchodilator, such as albuterol. Bronchodilator reversibility (BDR) is calculated and assessed by analyzing FEV1 pre- and post-bronchodilator, and calculating the change both as absolute (ml) and percentage change.
Evaluation of Efficacy: Blood eosinophil count, changes in pulmonary function (FEV1), Asthma Control Questionnaire (ACQ-6), Asthma Control Questionnaire (ACQ-7), Asthma Quality of Life Questionnaire (AQLQ), exhaled nitric oxide, pharyngeal and nasal eosinophil peroxidase were collected periodically during the study. […]

SMILES: CCCN[C@@H]1CCc2nc(N)sc2C1 [dexpramipexole, (6R)-2-amino-4,5,6,7-tetrahydro-6-(propylamino) benzothiazole]
- FEV1 change from Baseline LSM (150 mg/day, Week 16 or Week 18): 0.128 L
- Pre-Bronchodilator FEV1 Change from Baseline LSM (Week 16 or Week 18, pooled dexpramipexole arms, <50% AEC reduction at Week 12): 0.140 L
